{"source": "PubChem BioAssay AID1531", "about": "(NMMLSC, 2009)", "note": "The entries are a selection whose mix differs from that of the whole data set. Active and inactive are the calls of the source. Cut-off read from the data, not from the text of the source: active = binding response below about 67% or above about 130%; inconclusive = no clear call, values can overlap the other calls; inactive = in between.", "data": [{"target": "Mitogen-activated protein kinase kinase kinase 2 (Homo sapiens) (UniProt Q9Y2U5)", "assay": "wildtype MEKK2 PB1-MEK5 interaction, increase or decrease – biochemical, multiplex bead flow cytometry, Alexa488-MEK5, primary screen (AID 1531)", "conditions": "Alexa488-MEK5 binding to MEKK2 WT, at 10 µM, actives lie on both sides", "values": [{"smiles": "CC1(CBr)Cn2c(nc3ccccc3c2=O)S1", "note": "(stereo not given)", "binding response (% of control)": "inactive: 110%"}, {"smiles": "O=[As](O)(c1ccccc1Br)c1ccccc1Br", "binding response (% of control)": "inactive: 91%"}, {"smiles": "CC(C)/C=N\\N=C(\\N)N[N+](=O)[O-]", "binding response (% of control)": "inactive: 99%"}, {"smiles": "CN(C(=O)Cc1ccc(Cl)c(Cl)c1)[C@@H]1CCCC[C@H]1N1CCCC1", "binding response (% of control)": "inactive: 86%"}, {"smiles": "CC(C)(C)C(=O)NC(Sc1ncccn1)C(Cl)(Cl)Cl", "note": "(stereo not given)", "binding response (% of control)": "inactive: 90%"}, {"smiles": "Clc1n[nH]nc1-c1nn[nH][15n]1", "binding response (% of control)": "inactive: 98%"}, {"smiles": "CN(CCCl)Cc1cc(Cl)c(NC2=NCCN2)c(Cl)c1", "binding response (% of control)": "active: 142%"}, {"smiles": "CCOP(=O)(Nc1ccc(C)cn1)OCC", "binding response (% of control)": "inactive: 103%"}, {"smiles": "CCOP(=O)(NC(=NC(C)c1ccccc1)NC(C)c1ccccc1)OCC", "note": "(stereo not given)", "binding response (% of control)": "inactive: 100%"}, {"smiles": "O=P1(Nc2ccccn2)COc2ccccc2OC1", "binding response (% of control)": "inactive: 103%"}, {"smiles": "CCC1=CC2Cc3nc4ccc(Cl)cc4c(N)c3C(C1)C2", "note": "(stereo not given)", "binding response (% of control)": "active: 181%"}, {"smiles": "O=P1(Nc2ccc(Br)cn2)COc2ccccc2OC1", "binding response (% of control)": "inactive: 106%"}, {"smiles": "O=[As](O)(c1cccs1)c1cccs1", "binding response (% of control)": "inactive: 108%"}, {"smiles": "Cc1ccc(OCC(=O)OC2CN3CCC2CC3)cc1", "note": "(stereo not given)", "binding response (% of control)": "inactive: 99%"}, {"smiles": "Nc1cccc([As](=O)(O)c2ccccc2)c1", "binding response (% of control)": "inactive: 76%"}, {"smiles": "O=P1(Nc2ncccn2)COc2ccccc2OC1", "binding response (% of control)": "inactive: 90%"}, {"smiles": "O=C(/C=C/c1ccccc1)OC1CN2CCC1CC2", "note": "(stereo not given)", "binding response (% of control)": "inactive: 106%"}, {"smiles": "CN(C)C1(CNC(=O)c2ccc(S(C)(=O)=O)cc2)CCCCC1", "binding response (% of control)": "inactive: 83%"}, {"smiles": "CC1CCC(C(C)C)C(OP(=O)(Nc2ccccn2)c2ccccc2)C1", "note": "(stereo not given)", "binding response (% of control)": "inactive: 95%"}, {"smiles": "Cc1ccc(C(=O)OC2CN3CCC2CC3)cc1", "note": "(stereo not given)", "binding response (% of control)": "inactive: 102%"}, {"smiles": "CN(C(=O)Cc1ccc(Cl)c(Cl)c1)[C@H]1CC[C@@]2(CCCO2)C[C@@H]1N1CCCC1", "binding response (% of control)": "inactive: 101%"}, {"smiles": "O=[N+]([O-])c1ccc2c(c1)nnn2O", "binding response (% of control)": "inactive: 109%"}, {"smiles": "CN(C(=O)Cc1ccccc1)[C@@H]1CC[C@]2(CCCO2)C[C@H]1N1CCCC1", "binding response (% of control)": "inactive: 107%"}, {"smiles": "CCOP1(=S)c2c(C)nn(CCC#N)c2N=C(c2ccc(F)cc2)N1C", "note": "(stereo not given)", "binding response (% of control)": "inactive: 102%"}, {"smiles": "NC(=O)Nc1ccc([As](=O)(O)O)cc1", "binding response (% of control)": "inactive: 103%"}, {"smiles": "Nc1ccccc1[As](=O)(O)c1ccccc1", "binding response (% of control)": "inactive: 86%"}, {"smiles": "O=C(O)COc1ccc([As](=O)(O)O)cc1[N+](=O)[O-]", "binding response (% of control)": "inactive: 99%"}, {"smiles": "CS(=O)(=O)c1cc([N+](=O)[O-])c2no[n+]([O-])c2c1", "binding response (% of control)": "inactive: 88%"}, {"smiles": "O=P(Nc1nccs1)(c1ccccc1)c1nc2ccccc2s1", "note": "(stereo not given)", "binding response (% of control)": "inactive: 101%"}, {"smiles": "O=P(Nc1nccs1)(Oc1ccccc1)Oc1ccccc1", "binding response (% of control)": "inactive: 110%"}]}]}
